Laboratory results reported in US8623885B2, “Fused tricyclic dual inhibitors of CDK 4/6 and FLT3” (Amgen Inc., priority 2011, dated 2014).

The chains behind the UniProt entries cited, without tags or fusion partners. Where a name states a change or a piece, a line headed by the entry shows the natural chain unless it says otherwise.
UniProt P11802: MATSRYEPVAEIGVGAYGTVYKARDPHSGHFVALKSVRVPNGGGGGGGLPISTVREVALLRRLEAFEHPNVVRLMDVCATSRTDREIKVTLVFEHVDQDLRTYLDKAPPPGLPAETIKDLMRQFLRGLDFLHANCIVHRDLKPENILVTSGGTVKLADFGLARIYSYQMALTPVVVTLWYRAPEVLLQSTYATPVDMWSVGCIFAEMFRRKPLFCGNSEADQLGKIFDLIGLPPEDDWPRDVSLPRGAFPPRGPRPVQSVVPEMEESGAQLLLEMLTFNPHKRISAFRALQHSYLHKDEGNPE

Biological target: CDK4/Cyclin D1 (Homo sapiens (Human), UniProt P11802)
Test: CDK4 filtration kinase assay
Format: biochemical
Conditions: CDK4/Cyclin D1, Rb fragment substrate, [33P]-ATP filtration assay
Experimental: The CDK4 and CDK1 inhibitory activity of the CDK4/6-FLT3 inhibitors was determined with a filtration kinase assay. The compounds, kinase and substrate diluted in the kinase buffer (20 mM Tris, pH7.4, 50 mM NaCl, 1 mM DTT, 0.1% BSA) were sequentially added to a 96-well Multiscreen HTS filtration plate (Millipore). The final 100 μL reaction mixture in each well contained 0.3 μg of CDK4/Cyclin D1 or CDK1/Cyclin B (Cell Signaling Technology), 1 μg of Rb fragment (aa773-928, Millipore) for the CDK4 assay or 5 μg of histone H1 for the CDK1 assay and 1 μCi of [^33P]-ATP. The mixture was incubated at room temperature for 1 hour. The proteins in the reaction were then precipitated and washed with cold TCA solution using an aspiration/filtration vacuum system. The plates were dried at room temperature, and the retained radioactivity was measured by scintillation counting.
IC50 values of the compounds in the above assays were determined by non-linear regression analysis using Prism (GraphPad Software).

IC50: 52.4 nM
Structure (SMILES): C[C@H]1CC[C@H](n2c3cnccc3c3cnc(Nc4ccc5c(n4)CCN(CCC(F)(F)F)C5)nc32)CC1 [Example 7, 9-((1r,4r)-4-Methylcyclohexyl)-N-(6-(3,3,3-trifluoropropyl)-5,6,7,8-tetrahydro-1,6-naphthyridin-2-yl)-9H-pyrido[4′,3′:4,5]pyrrolo[2,3-d]pyrimidin-2-amine]
